# Measured intrinsic clearance values of organic chemicals

From the experimental data distributed with OPERA 2.9.

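The OPERA project collected these measurements from public sources as training and test data for property models. One number stands for a compound and property, with no spread given. Conditions of the individual experiments are not part of the data. The measured form (salt, isomer or mixture) is not always the one drawn. Unmarked limits or estimates from the upstream databases cannot be ruled out.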

Intrinsic clearance (human, µL/min per 10^6 hepatocytes): higher is faster turnover, and 0 stands for none detected.

For CCNc1cccc(C)c1 [N-ethyl-3-methylaniline] the data give Clint 13.12 µL/min/10^6 cells.
For Cc1cc(NC(=O)C(=O)O)cc(C)c1Oc1ccc(O)c2c1CCC2 the data give Clint 0 µL/min/10^6 cells.
For CC(=O)C(C)=CC1C(C)=CCCC1(C)C (stereo not drawn) the data give Clint 10.8 µL/min/10^6 cells.
For Cc1ccc(S(=O)(=O)Nc2c(C(=O)N[C@@H](C)C(C)(C)C)c(C)nn2-c2ccccc2)cc1 the data give Clint 6.99 µL/min/10^6 cells.
For Cc1cccc2ccccc12 [1-methylnaphthalene] the data give Clint 443 µL/min/10^6 cells.
For CCc1cc(Cc2cc(CC)cc(C(C)(C)C)c2O)c(O)c(C(C)(C)C)c1 [2,2'-methylenebis(ethyl-6-tert-butylphenol)] the data give Clint 0 µL/min/10^6 cells.
For C[C@]12C=CC(=O)C=C1CC[C@@H]1[C@@H]2[C@@H](O)C[C@@]2(C)[C@H]1CC[C@]2(O)C(=O)CO [Prednisolone] the data give Clint 5.841 µL/min/10^6 cells.
For CC(=O)OC[C@H]1O[C@@](COC(C)=O)(O[C@H]2O[C@H](COC(C)=O)[C@@H](OC(C)=O)[C@H](OC(C)=O)[C@H]2OC(C)=O)[C@@H](OC(C)=O)[C@@H]1OC(C)=O [Sucrose octaacetate] the data give Clint 194 µL/min/10^6 cells.
For CCOC(=O)C1=C(C)NC(C)=C(C(=O)OC)C1c1cccc([N+](=O)[O-])c1 (stereo not drawn) [Nitrendipine] the data give Clint 12.07 µL/min/10^6 cells.
For CC(Cc1ccc(O)c(O)c1)C(C)Cc1ccc(O)c(O)c1 (stereo not drawn) [Nordihydroguaiaretic acid] the data give Clint 270 µL/min/10^6 cells.
For CCCCCC(CCC)C(=O)O (stereo not drawn) [ 2-Propylheptanoic acid ] the data give Clint 0.0143 µL/min/10^6 cells.
For CC(C)(c1ccc(O)cc1)c1ccc(O)cc1 [Bisphenol-a] the data give Clint 19.9 µL/min/10^6 cells.
For c1ccc(Nc2cccc3ccccc23)cc1 [N-phenyl-1-naphthylamine] the data give Clint 98.2 µL/min/10^6 cells.
For Cc1ccc(N=Nc2c(O)ccc3ccccc23)c(C)c1 [C.i. solvent orange 7] the data give Clint 0 µL/min/10^6 cells.
For CC(C)c1cccc(O)c1 [3-isopropylphenol] the data give Clint 19.9 µL/min/10^6 cells.
For CCOc1cc2ccccc2oc1=O [Ethoxycoumarin] the data give Clint 26 µL/min/10^6 cells.
For COc1ccc(-c2ccc3c(N4CCOC[C@@H]4C)nc(N4CCOC[C@@H]4C)nc3n2)cc1C(=O)N(C)C the data give Clint 4.27 µL/min/10^6 cells.
For CC(CCC(=O)O)(c1ccc(O)cc1)c1ccc(O)cc1 [Diphenolic acid] the data give Clint 0 µL/min/10^6 cells.
For CCCCCCOc1ccc(N)cc1 [4-hexyloxyanilline] the data give Clint 79.3 µL/min/10^6 cells.
For Oc1ccc2c(c1)-c1ccccc1C2 [3-hydroxyfluorene] the data give Clint 20.56 µL/min/10^6 cells.
For O=c1[nH]sc2ccccc12 [1,2-benzisothiazolin-3-one] the data give Clint 34.74 µL/min/10^6 cells.
For Cl.Nc1ccn([C@@H]2O[C@H](CO)[C@@H](O)[C@@H]2O)c(=O)n1 [Cytarabine hydrochloride] the data give Clint 16.8 µL/min/10^6 cells.
For Cc1c(C(=O)O)c(O)cc2c1C(=O)c1c(O)c([C@@H]3O[C@H](CO)[C@@H](O)[C@H](O)[C@H]3O)c(O)c(O)c1C2=O [Carminic acid] the data give Clint 88.8 µL/min/10^6 cells.
For CN1CCc2cccc3c2[C@H]1Cc1ccc(O)c(O)c1-3.CN1CCc2cccc3c2[C@H]1Cc1ccc(O)c(O)c1-3.Cl.Cl.O [Apomorphine hydrochloride hydrate] the data give Clint 17.4 µL/min/10^6 cells.
For C[Si]1(C)O[Si](C)(C)O[Si](C)(C)O[Si](C)(C)O[Si](C)(C)O1 [Decamethylcyclopentasiloxane] the data give Clint 0 µL/min/10^6 cells.
For CC(C)(C)NC[C@H](O)COc1nsnc1N1CCOCC1 [Timolol] the data give Clint 4.176 µL/min/10^6 cells.
For COC(=O)C(C)Oc1ccc(Oc2ncc(C(F)(F)F)cc2Cl)cc1 (stereo not drawn) [Haloxyfop-methyl] the data give Clint 467 µL/min/10^6 cells.
For CCOC(C)(C)C [2-methyl-2-ethoxypropane] the data give Clint 0.5997 µL/min/10^6 cells.
For Cc1nc2n(c(=O)c1CCN1CCC(c3noc4cc(F)ccc34)CC1)CCCC2 [Risperidone] the data give Clint 10.9 µL/min/10^6 cells.
For Cc1ccc(C)c(C)c1 [1,2,4-trimethylbenzene] the data give Clint 1.846 µL/min/10^6 cells.
For CCC1=C(C)CN(C(=O)NCCc2ccc(S(=O)(=O)NC(=O)N[C@H]3CC[C@H](C)CC3)cc2)C1=O [Glimepiride] the data give Clint 9.409 µL/min/10^6 cells.
For Oc1ccccc1 [Phenol] the data give Clint 5.496 µL/min/10^6 cells.
For C=CCc1ccccc1OCC(O)CNC(C)C (stereo not drawn) [Alprenolol] the data give Clint 17.4 µL/min/10^6 cells.
For CCCCC(CC)COC(=O)CC(C(=O)OCC(CC)CCCC)S(=O)(=O)[O-].[Na+] (stereo not drawn) [Docusate sodium] the data give Clint 49.8 µL/min/10^6 cells.

Extract of 2 entries:

structure (SMILES)	name	Clint (µL/min/10^6 cells)
Cc1c(C(=O)O)c(O)cc2c1C(=O)c1c(O)c([C@@H]3O[C@H](CO)[C@@H](O)[C@H](O)[C@H]3O)c(O)c(O)c1C2=O	Carminic acid	88.8
CCOC(C)(C)C	2-methyl-2-ethoxypropane	0.5997